From article PMC3722453, “N-truncated amyloid β (Aβ) 4-42 forms stable aggregates and induces acute and long-lasting behavioral deficits” (Acta Neuropathologica, 2013)

Legend:
[1] = Dynamic light scattering (DLS) of peptide supernatants; type: physicochemical
primary cortical neurons = test: Calcein-AM cell viability assay; type: cell-based, Wistar rat
Procedure: Cortical neurons from embryonic day 16–17 Wistar rat fetuses were prepared as previously described. In brief, dissociated cortical cells were plated at 50,000 cells/well in 48-well plates precoated with 1.5 mg/mL polyornithine (Sigma). Cells were cultured in a chemically defined Dulbecco’s Modified Eagle’s/F12 medium free of serum (Gibco) and supplemented with hormones, proteins and salts. Cultures were kept at 35 °C in a humidified 5 % CO2 atmosphere, and at 6–7 DIV, cortical population was determined to be at least 97 % neurons by immunostaining as done previously. At 6 DIV, the medium was removed and cortical neurons were incubated for 24 h with vehicle (cell culture medium) or Aβ peptides (dissolved in cell culture medium) at the indicated concentrations.
Following a 24-h incubation of primary cortical neurons with Aβ peptides, cell viability was determined using a calcein-AM assay (Invitrogen, Molecular Probes). Briefly, cells were washed twice with PBS and incubated to protect from light for 30 min at room temperature in the presence of 2 μM calcein-AM solution prepared in PBS. Cells were then washed twice with PBS and incubated for 15 min at room temperature in PBS containing 1 % Triton X-100 (v/v). The level of calcein fluorescence was monitored by fluorescence emission at 530 nm after exciting at 485 nm, using a Fluostar microplate reader (BMG-Labtechnologies, France).

[2] = 1D 1H NMR monomer consumption assay; type: physicochemical; settings: 40 μM peptide, phosphate buffer 20 mM pH 7.2, 25 mM NaCl; after 14 h of incubation at 37 °C; methyl and aromatic 1H signals normalised to DSS
Procedure: 1D ^1H NMR spectra of the five different Aβ peptides were measured at 5 °C at 400 MHz ^1H Larmor frequency. The samples contained 40-μM peptide in phosphate buffer (20 mM, pH 7.2) with 25-mM NaCl. The aggregation propensity of the Aβ variants were then studied through real-time 1D ^1H NMR experiments at 37 °C continued for 14 h at 1-h intervals. The integrated intensity of ^1H peaks at two regions (0.50–1.05 ppm, 6.50–8.00 ppm), after chemical shift using DSS ([…]) as a reference standard, was then calculated. After normalization by the integrated intensity of the DSS peak at 0 ppm, the relative intensity of the peptide ^1H peaks was used to probe peptide monomer consumption during the early phases of peptide aggregation.

[3] = Transmission electron microscopy (TEM) of aggregates; type: physicochemical; settings: 0.1 mg/mL, HEPES 25 mM pH 7.4, 50 mM NaCl, 3 days at 37 °C with gentle stirring
Procedure: Peptide samples of 0.1 mg/mL concentration in HEPES buffer (25 mM, pH 7.4, 50 mM NaCl) were incubated at 37 °C with gentle stirring. After 3 days of incubation, samples were diluted, deposited onto carbon-coated copper mesh grids and negatively stained with 2 % (w/v) uranyl acetate. The excess stain was washed away, and the sample grids were allowed to air-dry. The samples were then viewed with a 120-kV transmission electron microscope.

[4] = Far-UV circular dichroism (CD) spectroscopy; type: physicochemical; settings: 0.2 mg/mL, phosphate buffer 20 mM pH 7.2, 20 °C, monomeric state
Procedure: Samples of 0.2 mg/mL peptide concentration in phosphate buffer (20 mM, pH 7.2) were prepared. The far-UV CD measurements were conducted on a Chirascan CD spectrometer, with a 1-mm path length quartz cell, 1-nm bandwidth and 8-s collection time for each point at 0.5 nm steps between 190 and 260 nm. The buffer spectrum was also measured and subtracted from the spectra of Aβ peptides. The temperature-dependence of secondary structure was studied through far-UV measurements at three different temperatures, 20, 30 and 40 °C. The reversibility of temperature-induced changes was checked with an additional CD spectrum measured after cooling down from 40 to 20 °C. The CD spectrum of the cooled sample was taken after 5 min of equilibration at 20 °C. The 0.2 mg/mL Aβ samples in phosphate buffer (20 mM, pH 7.2) containing 25 mM NaCl were incubated at 37 °C for 3 days with gentle stirring. Following ThT fluorescence measurements which confirmed the presence of ThT-reactive aggregates in the peptide samples, the far-UV CD spectra were obtained at 20 °C as described above.

[5] = SDS-PAGE Western blot of Aβ peptides (stable aggregates); type: physicochemical; settings: 1 μg peptide, reducing conditions, antiserum 24311
Procedure: Lyophilized Aβ peptides were dissolved in 10-mM NaOH at a concentration of 1 mg/mL, aliquoted in 50 μL volumes, flash-frozen in liquid nitrogen and stored at −80 °C until use. For Western blot analysis under reducing conditions, 1 μg peptides were loaded on 4–12 % VarioGels (Anamed), transferred to 0.45 μm nitrocellulose membranes and detected using the primary antiserum 24311 (pan-Aβ, 1:500) or monoclonal antibody 4G8 (Aβ17-24, Signet; 1:500). For Western blotting of mouse brain, whole brain SDS lysates were used. Running and transfer buffers were applied according to the manufacturer. The blots were developed using enhanced chemiluminescence according to the manufacturer (Roth). Horse radish conjugated swine anti-rabbit antibody was used as a secondary antibody (1:3,000, Dianova).

[6] = Thioflavin T (ThT) fluorescence aggregation kinetics; type: physicochemical; settings: 40 μM peptide, HEPES 25 mM pH 7.4, 50 mM NaCl, 30 μM ThT, 37 °C, gently stirred
Procedure: Peptide samples of 40 μM concentration were prepared in HEPES buffer (25 mM, pH 7.4) containing 50 mM NaCl and 30 μM Thioflavin T (ThT). The kinetics of Aβ aggregation were then followed by real-time fluorescence emission measurement of ThT while the sample was kept at 37 °C and gently stirred. The excitation and emission wavelengths were 446 and 485 nm, respectively, with slits of 10 nm each.

C57BL/6 J wildtype mice = test: Y-maze working memory after intracerebroventricular injection of soluble Aβ; type: in vivo, mouse; settings: 50 pmol in 1 μL icv, male C57BL/6 J mice 12-week old, n = 6 per group, Y-maze on day 4, 5-min session
Procedure: Male C57BL/6 J mice (12-week old, Janvier, Le Genest-St-Isle, France; n = 6 per treatment group) were housed five to six per cage with free access to food and water, and were kept in a constant environment (22 ± 2 °C, 50 ± 5 % humidity, 12-h light cycle). Under anesthetization, freshly prepared Aβ peptides (50 pmol in 1 μL; 0.1 M phosphate-buffered saline (pH 7.4)) or vehicle (0.1 M phosphate-buffered saline) were injected into the right ventricle, with stereotaxic coordinates from the bregma (AP −0.22, L −1.0 and D 2.5 in mm). Intracerebroventricular (icv) injections were made using a 10-μl Hamilton microsyringe fitted with a 26-gauge needle. Four days following icv infusion of Aβ peptides, working memory was assessed using the Y-maze test.
Immediate spatial working memory performance in male C57BL/6 J wildtype mice (12-week old, Janvier, Le Genest-St-Isle, France; n = 6 per treatment group) was assessed by recording spontaneous alternation behavior in a Y-maze as described previously. […] The series of arm entries were recorded visually and arm entry was considered to be completed when the hind paws of the mouse were completely placed in the arm. […] The percentage alternation was calculated as the ratio of actual (total alternations) to possible alternations (defined as the number of arm entries minus two), multiplied by 100.

[7] = DLS at 20 °C, 0.2 mg/mL, phosphate buffer 20 mM pH 7.4, 25 mM NaCl, after 24 h at 37 °C without agitation, supernatant after 16,000g 15 min

## Aβ4-42: N-truncated amyloid β peptide beginning with phenylalanine at position 4, purchased from PSL
[1]; [7]
  hydrodynamic radius of larger aggregates: 30 to 50 nm
  hydrodynamic radius of small (main) aggregates: ~ 10 nm
[1]; after 24 h at 37 °C, 0.2 mg/mL, phosphate buffer pH 7.4, 25 mM NaCl, three measurements of the same sample
  light scattering intensity upon aggregation (rank among five Aβ peptides): biggest intensities
[1]; freshly prepared 0.2 mg/mL, phosphate buffer pH 7.4, 25 mM NaCl, 20 °C, three measurements of the same sample
  light scattering intensity before aggregation (rank among five Aβ peptides): highest scattering intensity
Primary cortical neurons; 24 h incubation with freshly prepared peptide at different concentrations, calcein-AM fluorescence
  effect on cell viability: dose-dependent reduction in cell viability
Primary cortical neurons; 24 h incubation, 5 μM, calcein-AM
  toxicity compared with Aβ4-40 at 5 μM: more potent than Aβ4-40
Primary cortical neurons; 24 h incubation, calcein-AM, ANOVA with Bonferroni multiple comparisons
  toxicity profile compared to vehicle control: strongest toxic effect
[2]
  loss of initial 1H NMR signal intensity (monomer consumption): ~20%
[3]
  aggregate morphology by TEM: clumps of fibrillar aggregates
[4]
  secondary structure by far-UV CD spectrum: disordered state; also recorded: unstructured in the monomeric state
[5]; after 1 and 3 days of aging
  higher molecular weight oligomers on SDS-PAGE after aging: higher molecular weight oligomers in addition
[5]; freshly dissolved
  species on SDS-PAGE, freshly dissolved peptides: monomers and aggregates most likely representing trimer/tetramers
[6]
  formation of ThT-reactive aggregates: significant ThT-reactivity already during the nucleation phase of aggregation
C57BL/6 J wildtype mice
  working memory (Y-maze alternation rate): significantly reduced

Entries after “also recorded” stand apart in the source; their conditions may differ.
